# The entries are a selection whose mix differs from that of the whole data set. Some of these compounds have results that are not shown, active ones among them. Activity calls are given as the source filed them. The call rests on the fitted dose curve; in most records, active means well fitted activation curve with a large enough effect; inconclusive means small, poorly fitted or top-dose-only effect; inactive means no such curve, though single readings can be large or run the other way.
# Experiment: qHTS Assay to Identify Small Molecule Activators of BRCA1 Expression; further: nearly all actives have a fitted effect of over 80% in size
# Conditions: MCF7-BRCA1-FFLuc reporter, luminescence, 48 h, scaled: vehicle 0%, 10 µM genistein 100%; at 46.1 µM (top of the series)
row,Structure (SMILES),activation
1,Cc1ccccc1C(=O)NCC1(N2CCCCC2)CCCCC1,inactive: -7.7%
2,CN(C)C1(CNC(=O)c2ccccc2[N+](=O)[O-])CCCCC1,inactive: 14.2%
3,CN(C)c1ccc(C(=O)NCC2(N(C)C)CCCCC2)cc1,inactive: 22.5%
4,CN(C)C1CCCC1OC(=O)C(O)(c1ccccc1)c1ccccc1 (stereo not drawn),inactive: -16.7%
5,CCCCOc1ccccc1C(=O)NCC1(N(C)C)CCCCC1,inactive: -0.377%
6,C=CCN1CCN(CCOC(=O)C(O)(c2ccccc2)c2ccccc2)CC1,inactive: -3.55%
7,O=C(NCC1(N2CCCCC2)CCCCC1)c1cc(F)c(F)cc1Cl,inactive: -9.77%
8,COc1ccc(C(=O)NCC2(N(C)C)CCCCC2)cc1,inactive: 12.5%
9,CCOc1cccc(C(=O)NCC2(N(C)C)CCCCC2)c1,inactive: 6.48%
10,CCN1CCCC(OC(=O)C2(O)c3ccccc3C=Cc3ccccc32)C1 (stereo not drawn),inactive: -1.98%
11,Cc1cc(C(=O)NCC2(N3CCCCC3)CCCCC2)ccc1[N+](=O)[O-],inactive: -16.2%
12,O=C(NCC1(N2CCCCC2)CCCCC1)c1cccc(Br)c1,inactive: -29%
13,O=C(NCC1(N2CCCCC2)CCCCC1)c1cc([N+](=O)[O-])ccc1Cl,inactive: 1.11%
14,CN1[C@@H]2CC[C@H]1CC(OC(=O)C(O)(c1ccccc1)c1ccccc1)C2 (stereo partly drawn),inactive: -7.18%
15,CN(C)C1(CNC(=O)c2cccc(Cl)c2)CCCCC1,inactive: -12.5%
16,CCN(CC)CC(C)C(C)OC(=O)C(O)(c1ccccc1)c1ccccc1 (stereo not drawn),inactive: 0%
17,COc1cc(SC)ccc1C(=O)NCC1(N(C)C)CCCCC1,inactive: -22.9%

row,Structure (SMILES),activation
1,CC(C)N1C(=O)CC2(CCN(CCOC(=O)C(O)(c3ccccc3)c3ccccc3)CC2)C1=O,inactive: -2.56%
2,Cc1ccc(C(=O)NCC2(N3CCCCC3)CCCCC2)cc1,inactive: -14.7%
3,CN(C)C1(CNC(=O)c2ccccc2F)CCCCC1,inactive: 3.26%
4,COc1cccc(C(=O)NCC2(N3CCOCC3)CCCCC2)c1,inactive: -16%
5,O=C(OC1CN2CCC1CC2)C(CO)(c1ccccc1)c1ccccc1 (stereo not drawn),inactive: 4.01%
6,C=C(C)C#CC(O)(C(=O)OC1CCN(C)CC1)c1ccccc1 (stereo not drawn),inactive: 31.7%
7,COc1ccc(Br)c(C(=O)NCC2(N3CCCCC3)CCCCC2)c1,inactive: 4.89%
8,CC(C)Oc1ccc(C(=O)NCC2(N(C)C)CCCCC2)cc1,inactive: 9.74%
9,O=C(OCCN1CCCC1)C(O)(c1ccccc1)c1ccccc1,inactive: -7.35%
10,CN(C)c1cccc(C(=O)NCC2(N(C)C)CCCCC2)c1,inactive: -12.5%
11,O=C(CBr)c1ccc(Cl)cc1,inactive: 3.63%
12,CN(C)C1(CNC(=O)c2ccc(Br)cc2)CCCCC1,inactive: -8.97%
13,COc1cc(C(=O)NCC2(N(C)C)CCCCC2)c([N+](=O)[O-])cc1OC,inactive: -3.6%
14,COc1cccc(C(=O)NCC2(N3CCCCC3)CCCCC2)c1,inactive: -1.89%
15,COc1ccc(Cl)cc1C(=O)NCC1(N(C)C)CCCCC1,inactive: -3.12%
16,O=C(NCC1(N2CCCCC2)CCCCC1)c1cccc(Cl)c1,inactive: -30%

# Source: PubChem BioAssay AID624202 (National Center for Advancing Translational Sciences (NCATS), 2012)
